# Results taken from PubChem BioAssay AID504634 (The Scripps Research Institute Molecular Screening Center, 2011).
# Amino acid sequences for entries named in this document (tags omitted).
# UniProt P47898, whole entry, looked up: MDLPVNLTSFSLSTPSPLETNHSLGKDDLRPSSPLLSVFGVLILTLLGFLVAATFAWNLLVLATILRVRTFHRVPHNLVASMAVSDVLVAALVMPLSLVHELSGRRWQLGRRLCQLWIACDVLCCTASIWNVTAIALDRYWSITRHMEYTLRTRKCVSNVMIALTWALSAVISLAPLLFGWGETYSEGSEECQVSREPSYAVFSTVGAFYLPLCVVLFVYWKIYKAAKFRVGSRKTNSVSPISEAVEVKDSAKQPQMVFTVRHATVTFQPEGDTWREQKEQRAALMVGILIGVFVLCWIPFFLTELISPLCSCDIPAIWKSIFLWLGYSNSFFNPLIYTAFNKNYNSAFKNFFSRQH
# Only a part is listed here, and it is no random draw. Active and inactive are the calls of the source. Rule as the data show it: active = inhibition mostly above about 23% (no sharp cut-off); inactive = mostly below about 18%.
# Target: 5-hydroxytryptamine receptor 5A (Homo sapiens) (UniProt P47898)
# Test: HTR5A inverse agonists in luminescence cell assay, primary screen, counter-screen for OPRM1-OPRD1 heterodimer inverse agonist project, full-deck HTS (AID 504634);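 also: 0% = cells with DMSO and 100% = no-cell wells with DMSO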
# Conditions: HTR5A cell line, inverse agonism, at 9.3 µM, stronger effect = higher value
row,Compound,inhibition
1,N=c1n(CCN2CCOCC2)c2ccccc2n1CC(O)COc1ccccc1 (stereo unspecified),inactive: 15.9%
2,COc1cccc(C(=O)CSc2nc3ccccc3n2CC(=O)N(C(C)C)C(C)C)c1,inactive: 8.47%
3,CC(C)Sc1nc2ccccc2n1CC(=O)NCc1ccc2c(c1)OCO2,inactive: -9.11%
4,Cn1c(=O)n(Cc2ccc(F)cc2)c(=O)c2c1nc1n2CCN1Cc1ccco1,inactive: 15.9%
5,CCOC(=O)CNC(=S)N1CCn2c(nc3ccccc32)C1,inactive: 13.2%
6,Cc1nc2ccccc2n1CC(=O)NCc1ccccc1,inactive: 0.95%
7,CCOC(=O)C1CCN(C(=O)CC2C(=O)N(Cc3ccccc3)C(C)c3nc4ccccc4n32)CC1 (stereo unspecified),inactive: 0.53%
8,Cn1c(=O)c2c(ncn2CC(=O)N/N=C/C=C/c2ccco2)n(C)c1=O,inactive: -5.89%
9,Cn1c(=O)c2c(ncn2CC(=O)N/N=C/c2cn[nH]c2-c2ccc(F)cc2)n(C)c1=O,inactive: -2.84%
10,O=C(Cn1cnc2ccccc21)N/N=C/c1ccc([N+](=O)[O-])cc1,inactive: -2.57%
11,O=C(O)COc1ccc([As](=O)(O)O)cc1[N+](=O)[O-],inactive: -9.87%
12,Nc1ccccc1[As](=O)(O)c1ccccc1,inactive: -21.2%
13,Cc1ccc2c(c1)C1CN(C)CCC1N2C(=O)c1cn(-c2ccccc2)nc1-c1ccccc1 (stereo unspecified),inactive: 3.3%
14,Nc1nonc1-c1nc2ccccc2n1CC(=O)N/N=C/c1ccc(-c2cccc(C(=O)O)c2)o1,inactive: 8.3%
15,CCOC(=O)c1ccccc1NC(=O)Cn1cnc2c1c(=O)n(C)c(=O)n2C,inactive: 14%
16,NC(=O)Cn1c(-c2nonc2N)nc2ccccc21,inactive: -7.83%
17,COCCN1CCn2c(nc3cc(NC(=O)NC4CCCCC4)ccc32)C1,inactive: -19.1%
18,Cc1nc2ccccc2n1CC(=O)N/N=C/c1cccnc1,inactive: 6.1%
19,O=P(Nc1nccs1)(c1ccccc1)c1nc2ccccc2s1 (stereo unspecified),inactive: -6.96%
20,Cn1c(=O)c2c(ncn2CC(=O)N2CCN(S(=O)(=O)c3ccc(Cl)cc3)CC2)n(C)c1=O,inactive: 9.91%
21,CCN(CC)CCn1c(C)nc2ccccc21,inactive: -13.9%
22,O=P(Nc1nccs1)(Oc1ccccc1)Oc1ccccc1,inactive: 13.6%
23,Cc1ccccc1NC(=O)Cn1c(NCC(C)O)nc2ccccc21 (stereo unspecified),inactive: -7.76%

row,Compound,inhibition
1,CCc1nc2ccccc2n1CC(=O)Nc1cc(C)on1,inactive: -68.7%
2,CC(C)c1ccc(NC(=O)C2CC(=O)Nc3nc4ccccc4n32)cc1 (stereo unspecified),inactive: 7.86%
3,O=C(Nc1nc2ccccc2n1CCN1CCOCC1)c1ccc(Cn2cc([N+](=O)[O-])cn2)o1,inactive: -10.4%
4,N#Cc1ccc(NC(=O)Cn2c3[n+](c4ccc(C(F)(F)F)cc42)CCCCC3)cc1,inactive: -5.24%
5,CCC(C)[C@H](NC(=O)N1CCn2c1nc1ccccc12)C(=O)NCCc1ccc(OC)c(OC)c1 (stereo partly specified),inactive: -3.61%
6,Cn1c(=O)n(CC(=O)Nc2ccc(F)cc2)c2ccccc21,inactive: -10.8%
7,C/C(=N\NC(=O)Cn1c(-c2ccccn2)nc2ccccc21)c1cccc(O)c1,inactive: 5.97%
8,CCN1CCC(Nc2ccnc3cc(Cl)ccc23)CC1,inactive: -12.3%
9,CN(C(=O)Cn1c(Cl)nc2c1c(=O)n(C)c(=O)n2C)C1CCS(=O)(=O)C1 (stereo unspecified),inactive: 9.32%
10,CCOP1(=S)c2c(C)nn(CCC#N)c2N=C(c2ccccc2F)N1C (stereo unspecified),inactive: 12.4%
11,CS(=O)(=O)c1cc([N+](=O)[O-])c2no[n+]([O-])c2c1,inactive: 11.8%
12,Cc1ccc(/C=N\NC(=O)Cn2c(C)nc3ccccc32)o1,inactive: 13.6%
13,Cn1c(=O)c2c(ncn2CC(=O)Nc2ccc3c(c2)OCO3)n(C)c1=O,inactive: -2.75%
14,O=C(Cn1cnc2ccccc21)N1CCc2ccccc21,inactive: -8.17%
15,COC(=O)[C@H](CCSC)NC(=O)Cn1cnc2c(SC)nc(N)nc21,inactive: 25%
16,O=C1NCN(c2ccccc2)C12CCN(c1nnnn1-c1ccccc1)CC2,inactive: 2.09%
17,CN(C)C(=O)Cn1c(SCC(=O)N2CCCc3ccccc32)nc2ccccc21,inactive: 23.8%
18,CCN(Cc1ccccc1)C(=O)Cn1cnc2c1c(=O)n(C)c(=O)n2C,inactive: 3.51%
19,CCN(CC)CCn1c(=N)n(CC(O)COc2ccccc2)c2ccccc21 (stereo unspecified),inactive: 25%
20,C[C@H](NC(=O)N1CCn2c1nc1ccccc12)C(=O)NCc1ccc2c(c1)OCO2,inactive: 9.08%
21,CC(C(O)c1ccccc1)N(C)CCn1cnc2c1c(=O)n(C)c(=O)n2C (stereo unspecified),inactive: -2.12%
22,CN(C(=O)Cc1ccccc1)[C@@H]1CC[C@]2(CCCO2)C[C@H]1N1CCCC1,inactive: 6.93%
23,CCOP1(=S)c2c(C)nn(CCC#N)c2N=C(c2ccc(F)cc2)N1C (stereo unspecified),inactive: -6.65%
